This assay deals with Mitogen-activated protein kinase 14 (Homo sapiens) (UniProt Q16539). Nature of the assay: Potency index, ratio of SB203580 IC50 to compound IC50 for p38alpha MAPK (unknown origin).

Sequences of proteins named here, by UniProt entry; tags and fusion partners are left off.
UniProt Q16539, whole entry: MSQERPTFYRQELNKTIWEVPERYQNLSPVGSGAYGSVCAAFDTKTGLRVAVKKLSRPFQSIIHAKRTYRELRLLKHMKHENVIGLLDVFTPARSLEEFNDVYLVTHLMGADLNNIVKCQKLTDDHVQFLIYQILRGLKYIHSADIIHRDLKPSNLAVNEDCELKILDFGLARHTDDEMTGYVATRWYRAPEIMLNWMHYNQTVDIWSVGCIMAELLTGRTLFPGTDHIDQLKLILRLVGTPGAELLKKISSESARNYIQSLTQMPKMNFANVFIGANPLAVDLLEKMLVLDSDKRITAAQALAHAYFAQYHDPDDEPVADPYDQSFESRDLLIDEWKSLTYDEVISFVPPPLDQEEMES

Structures are written as SMILES.

Turning to `COc1c2ccoc2cc2oc(C)c(-c3cc(-c4ccc(F)cc4)c(C#N)c(=N)[nH]3)c(=O)c12`, the Ratio IC50 was found to be 2.6.
